# Values of other authors in paper PMC8713164, “Development of a 1,2,4-Triazole-Based Lead Tankyrase Inhibitor: Part II” (Journal of Medicinal Chemistry, 2021).
# Legend:
# [1] = target: T1, TNKS1 (Homo sapiens, UniProt O95271); settings: cited from earlier work
# T1 sequence (O95271 1030-1317): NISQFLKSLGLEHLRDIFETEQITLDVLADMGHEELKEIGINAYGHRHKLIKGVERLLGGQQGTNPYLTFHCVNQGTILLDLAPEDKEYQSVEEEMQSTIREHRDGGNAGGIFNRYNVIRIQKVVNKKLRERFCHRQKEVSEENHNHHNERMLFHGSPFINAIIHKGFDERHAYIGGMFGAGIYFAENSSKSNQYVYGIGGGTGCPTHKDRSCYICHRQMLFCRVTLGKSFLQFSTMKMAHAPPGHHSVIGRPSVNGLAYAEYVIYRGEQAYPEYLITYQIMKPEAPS
# [2] = target: T2, TNKS2 (Homo sapiens, UniProt Q9H2K2); settings: cited from earlier work
# T2 construct: TNKS2 (residues 873–1162); made in house
# T2 sequence (Q9H2K2 873-1162): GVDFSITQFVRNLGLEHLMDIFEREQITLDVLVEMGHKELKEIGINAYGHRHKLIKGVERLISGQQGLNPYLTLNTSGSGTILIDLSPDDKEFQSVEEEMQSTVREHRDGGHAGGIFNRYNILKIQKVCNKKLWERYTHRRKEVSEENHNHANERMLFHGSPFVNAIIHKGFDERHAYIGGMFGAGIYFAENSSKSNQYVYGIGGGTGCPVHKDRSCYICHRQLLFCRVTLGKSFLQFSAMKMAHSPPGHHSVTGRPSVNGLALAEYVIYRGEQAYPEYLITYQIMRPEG
smiles,measurement,setting,value
CCOc1ccc(-c2nnc([C@H]3C[C@H](NC(=O)c4ccccn4)C3)n2-c2ccccc2F)nc1 [Compound 1],TNKS1 pIC50 ± SEM,[1],6.90 ± 0.05
same,IC50,[1]; read-out: TNKS1 IC50,127 nM
same,IC50,[2],14 nM
same,TNKS2 pIC50 ± SEM,[2],14 (7.85 ± 0.04)
